The list shows a part of the results, in another mix than the full data. Inconclusive results are not listed. The source made the active and inactive calls.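 Rule for the calls: active = thallium entry rate above the same plate's blocked-transporter control wells by more than 3 SD; inconclusive = the two repeat wells disagree; inactive = the rest.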
Experiment: KCC2 HEK cell Tl+ influx single-dose follow-up with bumetanide block (AID 1714);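 note: raw slope of fluorescence over initial fluorescence between 10 and 20 s after thallium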
Settings: HEK293-KCC2 + bumetanide/ouabain, thallium flux FluoZin2; at 10 µM; stronger effect = higher value
Procedure, shortened: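 Test system: KCC2-expressing HEK cells; Reagent: thallium stimulus; Dosing: single compound dose, 10 µM final, 0.1% DMSO; Schedule: overnight culture 37 °C, dye loading 48 min; Detection: FluoZin2 thallium-flux fluorescence; Read-out basis: baseline-normalized fluorescence (F/F0) slope, 10–20 s post thallium.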

Structure (SMILES)	normalized thallium flux
CP(=O)(Nc1ccccc1)Oc1ccc(F)cc1 (stereo unspecified)	inactive: 0.007

From PubChem BioAssay AID1714 (Vanderbilt High Throughput Screening Facility, 2009)
